This is an account of results in patent US11820766B2, “Monoacylglycerol lipase modulators” (Janssen Pharmaceutica NV, priority 2018, dated 2023).

Chains of the proteins cited; added tags and fusions are not shown.
UniProt Q99685, whole entry: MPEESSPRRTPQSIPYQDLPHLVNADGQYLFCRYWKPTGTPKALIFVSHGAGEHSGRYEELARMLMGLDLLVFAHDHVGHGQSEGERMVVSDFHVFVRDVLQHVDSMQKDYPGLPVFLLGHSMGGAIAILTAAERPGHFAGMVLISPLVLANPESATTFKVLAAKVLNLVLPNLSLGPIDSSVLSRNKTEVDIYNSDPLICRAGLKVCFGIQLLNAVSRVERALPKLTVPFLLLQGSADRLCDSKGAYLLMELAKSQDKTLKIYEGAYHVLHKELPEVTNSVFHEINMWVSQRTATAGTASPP

By IC50 is commonly meant the concentration that inhibits the measured activity by half.

The test has as its target human MGL from HeLa cells (Homo sapiens, UniProt Q99685). Put plainly: In vitro MGL activity assay: [glycerol-1,3-3H]-oleyl glycerol cleavage by MGL from HeLa cells. The following applies: read-out: MGL IC50, 300 nM [Glycerol-1,3-3H]-oleyl glycerol, one hour. On the procedure: The assay used to measure the in vitro activity of MGL is adapted from the assay used for another serine hydrolase (FAAH) described in Wilson et al., 2003 (A high-throughput-compatible assay for determining the activity of fatty acid amide hydrolase. Wilson S J, Lovenberg T W, Barbier A J. Anal Biochem. 2003 Jul. 15; 318(2):270-5.). The assay consists of combining endogenously expressed MGL from HeLa cells with test compounds, adding [glycerol-1,3-^3H]-oleyl glycerol, incubating for one hour, and then measuring the amount of cleaved [1,3-^3H]-glycerol that passes through an activated carbon filter. The amount of cleaved, tritiated glycerol passing through the carbon filter is proportional to the activity of the MGL enzyme in a particular well/test condition.
Standard conditions for this assay combine 300 nM [Glycerol-1,3-^3H]-oleyl glycerol with human MGL from HeLa cells and test compounds for one hour, after which the reaction is filtered through activated carbon and tritium is measured in the flow through. The test compound concentration in screening mode is 10 uM, while the highest compound concentration in IC50 assays is determined empirically. MGL is the predominant hydrolase in HeLa cells/cell homogenates.

For `COc1ccc2nc(C)c(C(=O)N3CCc4c(nn(C)c4-c4cc(F)c(F)c(F)c4)[C@@H]3C)n2c1`, the IC50 came out at 204 nM.
